# Results reported in PMC2994747 (2010).
# How the values were obtained:
# GammaA3 = experiment: MTS cell viability assay; assay type: cell-based, mouse; conditions: 96 h
# [1] = system: Bcr/Abl and Src family kinases; conditions: read-out: IC50, activation of Bcr/Abl and Src family kinases; calculated IC50; cited from earlier work
smiles,measurement,setting,value
"Cc1nc(Nc2ncc(C(=O)Nc3c(C)cccc3Cl)s2)cc(N2CCN(CCO)CC2)n1 [Dasatinib, reference compound]",IC50 lower than that of Si162,GammaA3,20 fold
same,IC50,[1],1.83 nM
